Read-outs that look alike come from different tables or passages of the source.
T1: human ferroportin (Homo sapiens, UniProt Q9NP59)
T1 construct: expressed in transfected cells
T1 sequence (Q9NP59 1-571): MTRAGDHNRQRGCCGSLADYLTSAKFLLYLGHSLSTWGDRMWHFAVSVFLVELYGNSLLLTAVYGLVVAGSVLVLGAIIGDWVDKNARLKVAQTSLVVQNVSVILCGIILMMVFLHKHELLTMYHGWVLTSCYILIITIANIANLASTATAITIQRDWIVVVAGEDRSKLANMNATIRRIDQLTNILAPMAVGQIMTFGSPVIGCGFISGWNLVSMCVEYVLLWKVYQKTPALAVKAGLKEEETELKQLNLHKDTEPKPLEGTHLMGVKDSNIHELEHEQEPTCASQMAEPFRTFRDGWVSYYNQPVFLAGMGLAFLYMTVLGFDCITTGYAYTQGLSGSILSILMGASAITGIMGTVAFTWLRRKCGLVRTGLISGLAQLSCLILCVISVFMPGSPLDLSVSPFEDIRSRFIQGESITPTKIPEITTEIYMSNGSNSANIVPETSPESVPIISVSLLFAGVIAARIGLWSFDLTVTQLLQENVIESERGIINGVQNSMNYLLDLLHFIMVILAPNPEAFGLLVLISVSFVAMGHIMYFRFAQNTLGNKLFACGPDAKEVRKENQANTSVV

T2: ferroportin endogenously expressed on T47D human breast carcinoma cells (human, UniProt Q9NP59 1-571)
T2 sequence (looked up): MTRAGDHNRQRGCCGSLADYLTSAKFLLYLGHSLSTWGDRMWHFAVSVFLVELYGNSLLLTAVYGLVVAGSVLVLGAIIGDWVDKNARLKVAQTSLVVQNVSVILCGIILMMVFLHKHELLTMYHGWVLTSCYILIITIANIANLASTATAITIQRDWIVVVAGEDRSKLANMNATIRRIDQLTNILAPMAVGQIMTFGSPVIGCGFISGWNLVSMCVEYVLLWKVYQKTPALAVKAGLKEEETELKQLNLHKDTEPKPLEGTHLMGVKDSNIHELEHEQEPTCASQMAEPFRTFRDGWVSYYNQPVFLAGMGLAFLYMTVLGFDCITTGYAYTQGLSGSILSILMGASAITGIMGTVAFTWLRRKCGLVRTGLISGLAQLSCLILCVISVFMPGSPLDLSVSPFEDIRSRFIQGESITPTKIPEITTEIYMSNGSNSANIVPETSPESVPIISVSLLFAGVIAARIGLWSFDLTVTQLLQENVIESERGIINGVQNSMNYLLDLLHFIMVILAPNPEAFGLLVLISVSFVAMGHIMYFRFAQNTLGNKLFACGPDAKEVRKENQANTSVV


Assays:
human ferroportin = molecular target: T1, human ferroportin; experiment: FPN activity assay: internalization/degradation of ferroportin-GFP in stably transfected HEK293 cells (decrease in GFP fluorescence); type: cell-based
Procedure: Following internalization, the ferroportin protein is degraded.
A retro inverse peptide is a peptide with a reversed sequence in all D amino acids. An example is that Hy-Glu-Thr-His-NH2 becomes Hy-DHis-DThr-DGlu-NH2. The EC50 of these reference compounds for ferroportin internalization/degradation was determined according to the FPN activity assay described above. These peptides served as control standards.
These values were determined as described herein.

[1] = molecular target: T2, ferroportin endogenously expressed on …; experiment: cell-based or functional assay
[2] = Table 2D (Illustrative Monomer Hepcidin Analogues), ferroportin-GFP HEK293 cells, read-out: IC50: FPN internalisation
[3] = Table 2A, HEK293 cells expressing human ferroportin-GFP, at least 18 hours incubation, read-out: FPN EC50

Molecule | DC50 (human ferroportin; [2]) [nM] | also measured
CC[C@H](C)[C@@H]1NC(=O)[C@@H](NC(=O)[C@@H]2CCCN2C(=O)[C@@H](NC(=O)[C@H](Cc2cnc[nH]2)NC(=O)[C@@H](NC(=O)[C@H](CCC(=O)OC)NC(=O)CC(C)C)[C@@H](C)O)C(c2ccccc2)c2ccccc2)CSSC[C@@H](C(N)=O)CC(=O)[C@@H](CCCCN)NC(=O)[C@H](CCc2ccccc2)NC(=O)[C@H](CCCCNC(=O)COCCOCCNC(=O)COCCOCCNC(=O)[C@H](CN)NC(=O)CCCCCCCCCCCCCCCCC(=O)O)NC1=O [Compound 508] | 24.2 | –
CC[C@H](C)[C@@H]1NC(=O)[C@@H](NC(=O)[C@@H]2CCCN2C(=O)[C@@H](NC(=O)[C@H](Cc2cnc[nH]2)NC(=O)[C@@H](NC(=O)[C@H](CCC(=O)OC)NC(=O)CC(C)C)[C@@H](C)O)C(c2ccccc2)c2ccccc2)CSSC[C@@H](C(N)=O)NC(=O)[C@@H](CCCCN)NC(=O)C[C@H](Cc2ccccc2)NC(=O)[C@H](CCCCNC(=O)CCOCCOCCOCCOCCOCCOCCOCCOCCCCCOCCOCCOCCNC(=O)CCOCCOCCOCCOCCOCCOCCOCCOCCOCCOCCOCCOCCNC(=O)[C@@H](CN)NC(=O)CCCCCCCCCCCCCCCCC(=O)O)NC1=O [Compound 519] | 24.7 | –
CC[C@H](C)[C@@H]1NC(=O)[C@@H](NC(=O)[C@@H]2CCCN2C(=O)[C@@H](NC(=O)[C@H](Cc2cnc[nH]2)NC(=O)[C@@H](NC(=O)[C@H](CCC(=O)O)NC(=O)CC(C)C)[C@@H](C)O)C(c2ccccc2)c2ccccc2)CSSC[C@@H](C(N)=O)NC(=O)[C@@H](CCCCN)NC(=O)C[C@H](Cc2ccccc2)NC(=O)[C@H](CCCCNC(=O)CCCOCCOCCOCCOCCOCCOCCOCCOCCOCCOCCOCCNC(=O)CCOCCOCCOCCCCCCOCCOCCOCCOCCOCCOCCOCCNC(=O)[C@@H](CN)NC(=O)CCCCCCCCCCCCCCCCC(=O)O)NC1=O [Compound 516] | 18.8 | –
CC[C@H](C)[C@@H]1NC(=O)[C@@H](NC(=O)[C@@H]2CCCN2C(=O)[C@@H](NC(=O)[C@H](Cc2cnc[nH]2)NC(=O)[C@@H](NC(=O)[C@H](CCC(=O)OC)NC(=O)CC(C)C)[C@@H](C)O)C(c2ccccc2)c2ccccc2)CSSC[C@@H](C(N)=O)NC(=O)[C@@H](CCCCN)NC(=O)C[C@H](Cc2ccccc2)NC(=O)[C@H](CCCCNC(=O)COCCOCCNC(=O)COCCOCCNC(=O)[C@H](CN)NC(=O)CCCCCCCCCCCCCCCCC(=O)O)NC1=O [Compound 279, Isovaleric Acid-[Glu_OMe]-T-H-[Dpa]-P—C—I-[Lys(1PEG2_1PEG2_Dap_C18_Diacid)]-[bhPhe]-[(D)Lys]-C—NH2] | – | DC50 (human ferroportin; Table 2B, HEK293 cells expressing human ferroportin-GFP, at least 18 hours incubation, read-out: FPN EC50): 11.4 nM
CCCCCCCCCCCCCCCC(=O)NCCCCCC(=O)NCCCC[C@@H]1NC(=O)C[C@H](Cc2ccccc2)NC(=O)[C@@H](CCCCN)NC(=O)[C@H]([C@@H](C)CC)NC(=O)[C@@H](NC(=O)[C@@H]2CCCN2C(=O)C(NC(=O)[C@H](Cc2cnc[nH]2)NC(=O)[C@@H](NC(=O)[C@H](CCC(=O)O)NC(=O)CC(C)C)[C@@H](C)O)C(c2ccccc2)c2ccccc2)CSSC[C@@H](C(N)=O)NC(=O)[C@@H](CCCCN)NC1=O (stereo partly shown) [Compound 6, Isovaleric Acid-E-T-H-[Dpa]-P-[Cys]-I-[(D)Lys]-[bhPhe]-[Lys(Ahx_Palm)]-[(D)Lys]-[Cys]-NH2] | – | DC50 (human ferroportin; [3]): 18.6 nM
CC[C@H](C)[C@@H]1NC(=O)[C@@H](NC(=O)[C@@H]2CCCN2C(=O)[C@@H](NC(=O)[C@H](Cc2cnc[nH]2)NC(=O)[C@@H](NC(=O)[C@H](CCC(=O)O)NC(=O)CC(C)C)[C@@H](C)O)C(c2ccccc2)c2ccccc2)CSSC[C@@H](C(N)=O)NC(=O)[C@@H](CCCCN)NC(=O)C[C@H](Cc2ccccc2)NC(=O)[C@H](CCCCNC(=O)COCCOCCNC(=O)COCCOCCNC(=O)CCCCCCCCCCCCCCCCC(=O)O)NC1=O [Compound 114, Isovaleric Acid-E-T-H-[Dpa]-P-[Cys]-I-[Lys(1Peg2_1Peg2_C18_Diacid)]-[bhPhe]-[(D)Lys]-[Cys]-NH2] | – | DC50 (human ferroportin; [3]): 12 nM
CC[C@H](C)[C@@H]1NC(=O)[C@@H](NC(=O)[C@@H]2CCCN2C(=O)[C@@H](NC(=O)[C@H](Cc2ccncc2)NC(=O)[C@@H](NC(=O)[C@H](CCC(=O)OC)NC(=O)CC(C)C)[C@@H](C)O)C(c2ccccc2)c2ccccc2)CCSSC(C(N)=O)NC(=O)[C@@H](CCCCN)NC(=O)C[C@H](Cc2ccccc2)NC(=O)[C@H](CCCCNC(=O)COCCOCCNC(=O)COCCOCCNC(=O)CCCCCNC(=O)CCCCCCCCCCCCCCCCC(=O)O)NC1=O (stereo partly shown) [Compound 496] | 10.6 | –
CC[C@H](C)[C@@H]1NC(=O)[C@@H](NC(=O)[C@@H]2CCCN2C(=O)[C@@H](NC(=O)[C@H](Cc2cnc[nH]2)NC(=O)[C@@H](NC(=O)[C@H](CCC(=O)O)NC(=O)CC(C)C)[C@@H](C)O)C(c2ccccc2)c2ccccc2)CSSC[C@@H](C(N)=O)NC(=O)[C@@H](CCCCN)NC(=O)C[C@H](Cc2ccccc2)NC(=O)[C@H](CCCCNC(=O)COCCOCCNC(=O)COCCOCCNC(=O)CC[C@H](NC(=O)CCCCCCCCCCCCCCCCC(=O)O)C(=O)O)NC1=O [Compound 107, Isovaleric Acid-E-T-H-[Dpa]-P-[Cys]-I-[Lys(1Peg2_1Peg2_IsoGlu_C18_Diacid)]-[bhPhe]-[(D)Lys]-[Cys]-NH2] | – | DC50 (human ferroportin; [3]): 15.5 nM
XETHXPCIXXXC (Isovaleric Acid-E-T-H-[Dpa]-P-C-I-[Lys(PEG12_C18 acid)]-[bhPhe]-[(D)Lys]-C-NH2) [Compound 306] | – | IC50: T47D Internalization MSA [1]: 0.99 nM

The next lines start with results.

DC50 (human ferroportin; [2]) [nM] | Molecule | also measured
18.8 | CC[C@H](C)[C@@H]1NC(=O)[C@@H](NC(=O)[C@@H]2CCCN2C(=O)[C@@H](NC(=O)[C@H](Cc2cnc[nH]2)NC(=O)[C@@H](NC(=O)[C@H](CCC(=O)O)NC(=O)CC(C)C)[C@@H](C)O)C(c2ccccc2)c2ccccc2)CSSC[C@@H](C(N)=O)NC(=O)[C@@H](CCCCNC(=O)CCOCCOCCOCCOCCOCCOCCOCCOCCOCCOCCOCCOC)NC(=O)C[C@H](Cc2ccccc2)NC(=O)[C@H](CCCCNC(=O)COCCOCCNC(=O)COCCOCCNC(=O)[C@H](CN)NC(=O)CCCCCCCCCCCCCCCCC(=O)O)NC1=O [Compound 524] | –
13.5 | CC[C@H](C)[C@@H]1NC(=O)[C@@H](NC(=O)[C@@H]2CCCN2C(=O)[C@@H](NC(=O)[C@H](Cc2cnc[nH]2)NC(=O)[C@@H](NC(=O)[C@H](CCC(=O)OC)NC(=O)CC(C)C)[C@@H](C)O)C(c2ccccc2)c2ccccc2)CSSC[C@@H](C(=O)N[C@H](CCCNC(=N)N)C(N)=O)NC(=O)[C@@H](CCCCN)NC(=O)C[C@H](Cc2ccccc2)NC(=O)[C@H](CCCCNC(=O)COCCOCCNC(=O)COCCOCCNC(=O)[C@H](CN)NC(=O)CCCCCCCCCCCCCCCCC(=O)O)NC1=O [Compound 534] | –
17 | CC[C@H](C)[C@@H]1NC(=O)[C@@H](NC(=O)[C@@H]2CCCN2C(=O)[C@@H](NC(=O)[C@H](Cc2cnc[nH]2)NC(=O)[C@@H](NC(=O)[C@H](CCC(=O)OC)NC(=O)CC(C)C)[C@@H](C)O)C(c2ccccc2)c2ccccc2)CSSC[C@@H](C(N)=O)NC(=O)[C@@H](CCCCNC(=O)CCOCCOCCOCCOCCOCCOCCOCCOCCOCCOCCOCCOC)NC(=O)C[C@H](Cc2ccccc2)NC(=O)[C@H](CCCCNC(=O)COCCOCCNC(=O)COCCOCCNC(=O)[C@H](CN)NC(=O)CCCCCCCCCCCCCCCCC(=O)O)NC1=O [Compound 523] | –
21 | CC[C@H](C)[C@@H]1NC(=O)[C@@H](NC(=O)[C@@H]2CCCN2C(=O)[C@@H](NC(=O)[C@H](Cc2cnc[nH]2)NC(=O)[C@@H](NC(=O)[C@H](CCC(=O)OC)NC(=O)CC(C)C)[C@@H](C)O)C(c2ccccc2)c2ccccc2)CSSC[C@@H](C(N)=O)NC(=O)[C@@H](CCCNC(=N)N)NC(=O)C[C@H](Cc2ccccc2)NC(=O)[C@H](CCCCNC(=O)COCCOCCNC(=O)COCCOCCNC(=O)[C@H](CN)NC(=O)CCCCCCCCCCCCCCCCC(=O)O)NC1=O [Compound 535] | –
